## Curated experimental data: melting point values

Data: OPERA 2.9 data sets, kmansouri/OPERA on GitHub.

Melting points are in °C.
Cells with "–" have no entry in this list.
The databases behind each value are named after "via".

N#CCC(=O)Nc1ccc(C(=O)O)cc1 [4-(2-Cyano-acetylamino)-benzoic acid] is reported with mp 196 °C (via OCHEM).
CCn1c(-c2ccc(Cl)cc2)n[nH]c1=S is reported with mp 212 °C (via OCHEM).
N#CSCSc1nc2ccccc2s1 [2-(Thiocyanomethylthio)benzothiazole] is reported with mp -10 °C (via PubChem).
CCNC(=O)c1ccccc1N [2-amino-N-ethylbenzamide] is reported with mp 94 °C (via OCHEM).
CC(=O)c1ccc(OC(C)C)cc1 [1-(4-isopropoxyphenyl)ethanone] is reported with mp 43 °C (via OCHEM).
O=C(O)c1cc(-c2cccc(Br)c2)nc2ccccc12 [2-(3-bromophenyl)quinoline-4-carboxylic acid] is reported with mp 216 °C (via OCHEM).
Cc1ccnc(NC(=O)C2CCNCC2)c1 [N-(4-Methylpyridin-2-yl)piperidine-4-carboxamide] is reported with mp 135 °C (via OCHEM).
O=Cc1cnc(N2CCOCC2)nc1 [2-Morpholin-4-yl-pyrimidine-5-carbaldehyde] is reported with mp 148 °C (via OCHEM).
COc1ccc2[nH]c(C)cc(=O)c2c1 [6-Methoxy-2-methylquinolin-4(1H)-one] is reported with mp 285 °C (via OCHEM).
NC(=O)Nc1cccc(C(=O)O)c1 [3-Ureidobenzoic acid] is reported with mp 270 °C (via OCHEM).
Cc1ccccc1-c1cc(N)on1 [3-(2-Methylphenyl)-1,2-oxazol-5-amine] is reported with mp 100 °C (via OCHEM).
C=CC(=O)OC(C)CCCCCC (stereo unspecified) [2-Octyl acrylate] is reported with mp -78 °C (via eChemPortal).
FC(C(F)(F)F)C(F)(F)Oc1cc(Cl)ccc1Cl (stereo unspecified) [1,4-Dichloro-2-(1,1,2,3,3,3-hexafluoropropoxy)benzene] is reported with mp -16.77 °C (via eChemPortal).
ClCc1cnn(-c2ccccc2)c1 [4-(chloromethyl)-1-phenyl-1H-pyrazole] is reported with mp 67 °C (via OCHEM).
CC(=O)O[C@]1(C(C)=O)CC[C@H]2[C@@H]3CC(Cl)C4=CC(=O)CC[C@]4(C)[C@H]3CC[C@@]21C (stereo not given in full) [6-Chloro-3,20-dioxopregn-4-en-17-yl acetate] is reported with mp 187.3 °C (via eChemPortal).
CC(C)(C)OC(=O)Nc1cc(N)ccc1F [tert-Butyl (5-amino-2-fluorophenyl)carbamate] is reported with mp 93 °C (via OCHEM).
CCCCCCCCCCCCCCCCCCO[Si](C)(C)C [Silane, trimethyl(octadecyloxy)-] is reported with mp 13.9 °C (via eChemPortal).
O=C(C(=O)c1ccc(Cl)cc1)c1ccccc1 [(p-Chlorophenyl)phenylethanedione] is reported with mp 66.5 °C (via OCHEM).
O=S(=O)(c1ccc2c(c1)CCN2)N1CCCCC1 [5-(piperidin-1-ylsulfonyl)indoline] is reported with mp 172 °C (via OCHEM).
O=S(=O)(O)CCO [2-Hydroxyethanesulfonic acid] is reported with mp 36 °C (via PubChem, eChemPortal).
Nc1nc(-c2cccs2)cs1 [4-(Thiophen-2-yl)thiazol-2-amine] is reported with mp 137 °C (via OCHEM).
CCOc1ccc(C(=O)O)cc1[N+](=O)[O-] [4-ethoxy-3-nitrobenzoic acid] is reported with mp 202 °C (via OCHEM).
C=C(C)CNC(=S)NN [N-(2-Methylprop-2-en-1-yl)hydrazinecarbothioamide] is reported with mp 87 °C (via OCHEM).
O=C(O)c1coc(Br)c1 [5-Bromofuran-3-carboxylic acid] is reported with mp 134 °C (via OCHEM).
CCCCC(CC)C(=O)OCC(COC(=O)C(CC)CCCC)OC(=O)C(CC)CCCC (stereo unspecified) [2-Ethylhexanoic acid triglyceride] is reported with mp -25.5 °C (via eChemPortal).
CCOC(=O)c1ccccc1C(=C1C=C(Br)C(=O)C(Br)=C1)c1cc(Br)c(O)c(Br)c1 [Tetrabromophenolphthalein ethyl ester] is reported with mp 210 °C (via PubChem).
CCC[C@H]1CC[C@H](c2cc(C(C)(C)C)c(O)c(C(C)(C)C)c2)CC1 is reported with mp 91.2 °C (via eChemPortal).
O=C(O)CCn1cccn1 [3-(1H-pyrazol-1-yl)propanoic acid] is reported with mp 77 °C (via OCHEM).
O=Cc1cc(Br)c2c(c1)OCCO2 [8-Bromo-2,3-dihydro-1,4-benzodioxine-6-carbaldehyde] is reported with mp 100 °C (via OCHEM).
CCN(CC)c1ccc(N=Nc2c(C#N)cc(C)cc2C#N)c(NS(C)(=O)=O)c1 is reported with mp 210.9 °C (via eChemPortal).
COc1cccc2nc3c4cccc5cccc(c(=O)n3c12)c54 is reported with mp 253.6 °C (via eChemPortal).
Clc1cc(Cl)c(Oc2cc(Cl)c(Cl)cc2Cl)c(Cl)c1 [2,2',4,4',5,6'-Hexachlorodiphenyl ether] is reported with mp 95 °C (via QSARDB).
CCOC(=O)N(CC)c1ccccc1 [Carbanilic acid, N-ethyl-, ethyl ester] is reported with mp 16 °C (via eChemPortal).
CC1=NN(c2cccc(C(F)(F)F)c2)C(=O)C1 is reported with mp 128 °C (via OCHEM).
Cc1ccc(-c2nc(N)sc2-c2ccc(C)cc2)cc1 [4,5-Di-p-tolyl-thiazol-2-ylamine] is reported with mp 154 °C (via OCHEM).
CCn1c(=O)c2c(ncn2C)n(C)c1=O [1-Ethyltheobromine] is reported with mp 165 °C (via QSARDB).

Excerpt, the opening 3 entries:

SMILES	name	mp (°C)	via
N#CCC(=O)Nc1ccc(C(=O)O)cc1	4-(2-Cyano-acetylamino)-benzoic acid	196	OCHEM
CCn1c(-c2ccc(Cl)cc2)n[nH]c1=S	–	212	OCHEM
N#CSCSc1nc2ccccc2s1	2-(Thiocyanomethylthio)benzothiazole	-10	PubChem

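OPERA's authors assembled the values from existing databases and did not measure them anew. One number stands for a compound and property, with no spread given. How each value was measured is not recorded, so precision varies. Where a salt, mixture or single isomer is drawn, the source does not say that exactly this form was tested. Some entries may be limits or estimates that an upstream database listed as plain numbers.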